Measured values published in patent US10570118B2, “Isoquinolones as BTK inhibitors” (Boehringer Ingelheim International GmbH, priority 2016, dated 2020).

Protein sequences, listed by entry. Tags and fused reporters are not part of them.
UniProt Q06187, whole entry: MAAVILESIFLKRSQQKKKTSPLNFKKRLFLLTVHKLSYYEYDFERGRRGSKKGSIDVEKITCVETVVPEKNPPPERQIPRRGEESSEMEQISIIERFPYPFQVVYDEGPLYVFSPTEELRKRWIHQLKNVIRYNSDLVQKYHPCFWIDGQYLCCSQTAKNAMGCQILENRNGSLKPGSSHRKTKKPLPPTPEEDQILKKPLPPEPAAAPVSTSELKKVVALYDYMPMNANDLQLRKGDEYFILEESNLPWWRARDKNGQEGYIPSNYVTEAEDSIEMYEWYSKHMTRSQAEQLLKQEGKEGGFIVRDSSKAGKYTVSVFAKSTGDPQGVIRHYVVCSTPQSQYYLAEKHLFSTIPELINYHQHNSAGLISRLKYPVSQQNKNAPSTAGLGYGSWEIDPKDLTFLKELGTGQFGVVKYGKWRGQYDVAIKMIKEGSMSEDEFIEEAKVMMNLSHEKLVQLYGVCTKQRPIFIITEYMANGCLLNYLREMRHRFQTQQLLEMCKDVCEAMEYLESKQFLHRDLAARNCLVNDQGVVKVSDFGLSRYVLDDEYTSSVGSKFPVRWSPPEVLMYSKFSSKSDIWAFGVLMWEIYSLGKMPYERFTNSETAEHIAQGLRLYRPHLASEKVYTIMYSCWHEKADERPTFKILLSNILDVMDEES

Target: human full length His-tagged BTK (Homo sapiens (Human), UniProt Q06187)
Test: BTK Lanthscreen Eu Kinase Binding assay
Details: read-out: BTK IC50; TR-FRET tracer displacement, 2 nM BTK, 30 min pre-incubation
Method: BTK Lanthscreen® Eu Kinase Binding assay:
A Lanthscreen® Eu Kinase Binding assay (Life Technologies) was performed to quantitate the ability of test compounds to bind to BTK. The assay is based on the binding and displacement of Alexa Fluor647-labeled Kinase Tracer #236 to the ATP-binding site of human full length His-tagged BTK (Life Technologies cat # PV3587) with TR-FRET detection using a europium-labeled anti-His antibody. The assay was assembled in 384-well low volume NBS black plates (Corning) where 2 nM BTK and test compound in DMSO at varying concentrations were pre-incubated for 30 min at 28° C. in assay buffer consisting of 50 mM HEPES, pH 7.4, 10 mM MgCl2, 1 mM EGTA. 100 μM Na3VO4 and 0.01% Brij 35. Then, 2 nM of Eu-anti His antibody and 30 nM Kinase Tracer were added and incubated for […] at 28° C. Following incubation, TR-FRET signal was read on an Envision plate reader (Excitation: 340 nm; Emissions: 615 and 665 nm). The 665: 615 nm emission ratio was calculated and converted to POC compared to control and blank wells.

Structure (SMILES)	IC50
CC#CC(=O)N1CCC1Cc1cc2cc(C3CC3)ccc2c(=O)n1-c1cccc(-c2cc(C(N)=O)n(C)c2)c1CO (centres unmarked)	0.11 µM
C=CC(=O)N1CC(c2cc3cc(C4CC4)ccc3c(=O)n2-c2cccc(-c3ccc4[nH]ncc4c3)c2CO)C1	0.0031 µM
